# According to US8507447, “Treatments of gastrointestinal disorders” (dated 2013):
# Test system: T1, Peptide 1
# T1 sequence: CCSLCCNPACTGCY
substance,measurement,value
Potato acid phosphatase,"Dephosphorylation of Peptide 1, Dephospho (%), potato acid phosphatase pH 5",22.1%
same,"Dephosphorylation of Peptide 1, Remaining (%), potato acid phosphatase pH 5",77.8%
